This note sets out measurements from patent US20060275503A1, “Combination treatment with strontium for the prophylaxis and/or treatment of cartilage and/or bone conditions” (Nordic Bone A/S, priority 2003, published 2006).

How the values of the data set were obtained: The solubility of the organic carboxylic acid strontium salts, were measured in water. The solubility of these salts was also measured as a function of temperature. This was performed by incubating the saturated solutions of the salts in temperature controlled incubators.
The buffered solutions were immersed into a bath of water temperature controlled at either room temperature (22-24° C.), at 30° C. or at 40° C. […] In order to eliminate any reminiscent strontium chloride influence on the determination of solubility, all the precipitate was collected at the bottom of the test tubes and the solutions above the precipitate were carefully removed and substituted by fresh solutions. […] From these solutions, the dissolved proportions of the strontium salt were collected in volumes of 1 mL at the specified temperature. The solutions were diluted to 50 mL before analysis by Flame Atomic Absorption Spectrometry (F-AAS).
Two methods were used for quantification of strontium in solutions: Flame Atomic Absorption Spectrometry (F-AAS), and the more sensitive inductively-coupled-plasma-mass spectrometry (ICP-MS).
The solubilities were investigated as described above, and strontium content in the saturated solutions determined as described here below.
Some of the very soluble strontium salts were further diluted before analysis by F-AAS. The measurements were performed by using a Perkin-Elmer 2100 equipped with a hydrogen lamp for correction of the background signal. Strontium was measured at a slit with of 0.2 nm, the wavelength was 460.8 nm operated at an energy of 58 and a current of 8 mA.
This analysis was performed using a Perkin Elmer Elan 5000 system equipped with a cross-flow nebulizer. The power was set at 1000 W and the Argon-gas flow was 12 L/min and 0.8 L/min of the torch and plasma gas, respectively.

With “strontium α-ketoglutarate [α-ketogluterate]”, the “SOLUBILITY AT 40° C. (mg/L) In water” value is given as 3534 mg/L. Where the note is “pH 7.5”, the “SOLUBILITY AT 40° C. (mg/L) pH 7.5” value amounted to 3809 mg/L and the “SOLUBILITY AT ROOM TEMPERATURE (22-24° C. mg/L) pH 7.5” value came to 2252 mg/L.
